Results: PMC7292230 (Journal of medicinal chemistry, 2020)

The chains behind the UniProt entries cited, without tags or fusion partners. Where a name states a change or a piece, a line headed by the entry shows the natural chain unless it says otherwise.
UniProt P48426: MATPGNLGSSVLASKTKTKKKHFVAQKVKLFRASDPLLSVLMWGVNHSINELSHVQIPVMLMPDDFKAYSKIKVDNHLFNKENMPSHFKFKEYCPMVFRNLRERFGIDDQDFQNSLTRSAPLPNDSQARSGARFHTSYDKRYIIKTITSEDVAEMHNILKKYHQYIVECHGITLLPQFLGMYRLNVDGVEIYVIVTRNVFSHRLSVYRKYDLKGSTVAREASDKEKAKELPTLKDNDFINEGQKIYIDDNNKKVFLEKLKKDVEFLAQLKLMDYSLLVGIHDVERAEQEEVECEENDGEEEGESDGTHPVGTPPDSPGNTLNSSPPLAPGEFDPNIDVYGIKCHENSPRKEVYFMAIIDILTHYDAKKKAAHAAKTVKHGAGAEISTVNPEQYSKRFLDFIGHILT
UniProt P78356: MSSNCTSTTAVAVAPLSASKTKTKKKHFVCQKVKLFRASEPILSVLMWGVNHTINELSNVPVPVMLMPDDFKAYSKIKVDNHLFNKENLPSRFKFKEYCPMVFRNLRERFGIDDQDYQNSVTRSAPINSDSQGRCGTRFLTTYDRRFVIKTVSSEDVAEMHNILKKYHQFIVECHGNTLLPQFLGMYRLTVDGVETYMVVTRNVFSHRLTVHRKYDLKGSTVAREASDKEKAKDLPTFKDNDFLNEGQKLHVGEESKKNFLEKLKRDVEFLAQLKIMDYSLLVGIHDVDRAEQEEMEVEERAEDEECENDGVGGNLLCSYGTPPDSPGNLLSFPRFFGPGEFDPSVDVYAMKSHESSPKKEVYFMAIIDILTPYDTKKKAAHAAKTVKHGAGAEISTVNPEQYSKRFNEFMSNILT

How the values were obtained:
PI5P4Kα = PI5P4Kα (Homo sapiens, UniProt P48426)
PI5P4Kβ = PI5P4Kβ (Homo sapiens, UniProt P78356)

covalent modification (labeling) of PI5P4Kα (PI5P4Kα): 63–87%
covalent modification (labeling) of PI5P4Kβ (PI5P4Kβ): 63–87%
Structure (SMILES): CN(C)C/C=C/C(=O)Nc1ccc(C(=O)Nc2cccc(Nc3cc(-c4c[nH]c5ccccc45)ncn3)c2)cc1 [THZ-P1–2]
